As usually defined, the IC50 is the concentration that inhibits the measured activity by half.

This assay deals with H9c2 cardiomyocytes, H2O2 protection, ATPLite viability, 2 h. Put plainly: H2O2-induced H9c2 cell death suppression – ATPLite luminescence, set 2, dose response (AID 602211).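 Note: potency is for protection so actives keep ATP signal up against peroxide killing.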 On the technique in general: In ATP-based viability assays light output follows the ATP content of the culture.

For the compound `NC(=O)c1ccsc1NC(=O)c1ccc([N+](=O)[O-])o1`, the IC50 was 2.38 µM.

The record behind these values is PubChem BioAssay AID602211 (Sanford-Burnham Center for Chemical Genomics, 2012).
